Results on 1 compound are retold here after ChEMBL document CHEMBL5584250, “5-HT6 receptor neutral antagonists protect astrocytes: A lesson from 2-phenylpyrrole derivatives” (Eur J Med Chem, 2024).

Amino acid sequences for entries named in this document (tags omitted).
UniProt P50406, whole entry: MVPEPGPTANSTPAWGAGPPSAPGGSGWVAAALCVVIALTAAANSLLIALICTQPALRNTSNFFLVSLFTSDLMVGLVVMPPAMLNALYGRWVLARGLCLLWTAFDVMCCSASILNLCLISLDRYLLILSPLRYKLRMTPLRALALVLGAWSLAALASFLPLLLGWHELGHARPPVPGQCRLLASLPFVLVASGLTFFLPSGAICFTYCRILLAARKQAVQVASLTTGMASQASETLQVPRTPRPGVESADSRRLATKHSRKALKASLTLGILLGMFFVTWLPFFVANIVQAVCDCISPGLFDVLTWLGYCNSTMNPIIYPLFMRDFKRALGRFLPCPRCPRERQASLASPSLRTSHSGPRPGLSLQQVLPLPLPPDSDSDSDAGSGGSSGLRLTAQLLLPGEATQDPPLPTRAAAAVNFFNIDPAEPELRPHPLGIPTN

The target of this test is 5-hydroxytryptamine receptor 6 (Homo sapiens, UniProt P50406).

On to `O=C(NC1CCNCC1)c1ccn(S(=O)(=O)c2cccc(Cl)c2)c1-c1cccc(F)c1`, for which the Ki (commonly a dissociation constant, usually derived from enzyme kinetics or from competition with a known ligand) came out at 12.6 nM.
